# Assay results published in patent publication US8927063B2, “Compositions for the treatment of timber and other wood substrates” (TimTechChem International Limited, priority 2008, dated 2015).
# Test: Example 2: solvent evaporation rate from treated wood pieces (daily re-weighing)
# Details: 17-22 °C, no external airflow
smiles,measurement,setting,value
"O [Water, water, reference compound]",% Solvent Remaining in Wood,After 24 h,22.4%
same,% Solvent Remaining in Wood,After 48 h,14.3%
same,% Solvent Remaining in Wood,After 72 h,12.2%
